# From ChEMBL document CHEMBL5331053, “Defining the structure-activity relationship for a novel class of allosteric MKP5 inhibitors” (Eur J Med Chem, 2022)
# Molecular target: T1, Dual specificity protein phosphatase 10 (Homo sapiens, UniProt Q9Y6W6)
# T1 sequence (Q9Y6W6 whole entry): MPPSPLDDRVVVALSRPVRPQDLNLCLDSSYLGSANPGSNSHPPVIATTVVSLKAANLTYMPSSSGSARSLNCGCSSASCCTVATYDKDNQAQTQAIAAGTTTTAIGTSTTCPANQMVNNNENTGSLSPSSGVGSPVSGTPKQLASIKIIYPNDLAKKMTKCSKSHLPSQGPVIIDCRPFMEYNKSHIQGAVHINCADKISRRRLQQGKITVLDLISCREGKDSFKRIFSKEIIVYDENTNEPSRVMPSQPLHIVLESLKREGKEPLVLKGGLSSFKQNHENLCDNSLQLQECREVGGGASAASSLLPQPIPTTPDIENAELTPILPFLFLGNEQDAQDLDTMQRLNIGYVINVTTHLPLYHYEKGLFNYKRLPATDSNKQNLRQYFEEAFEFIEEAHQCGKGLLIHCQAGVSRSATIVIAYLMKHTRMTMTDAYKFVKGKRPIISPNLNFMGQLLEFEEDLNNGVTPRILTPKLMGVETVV
# Assay: Inhibition of MKP5 catalytic domain (unknown origin) expressed in Escherichia coli BL21 (DE3) cells assessed as p38alpha MAPK phosphopeptide dephosphorylation using phosphopeptide as substrate incubated for 15 mins followed by substrate addition by malachite green dye based analysis
row,Structure (SMILES),IC50 [µM]
1,CSc1scc2c1-c1nc(SCC(=O)N3CCCC3)ncc1CC2,> 200
2,CSc1scc2c1-c1nc(SC3CCCC(C)(C)C3=O)ncc1CC2 (stereo not drawn),> 200
3,CC(C)Cc1scc2c1-c1nc(SCC(=O)C(C)(C)C)ncc1CC2,> 200
4,CSc1scc2c1-c1nc(SC3CCC(C)(C)C3=O)ncc1CC2 (stereo not drawn),25
5,COc1ccc2c(c1)CCc1cnc(SCC(=O)C(C)(C)C)nc1-2,> 200
6,CSc1scc2c1-c1nc(SCC(=O)N(C)C)ncc1CC2,> 200
7,CCCc1scc2c1-c1nc(SCC(=O)C(C)(C)C)ncc1CC2,11
8,CCN(CC)C(=O)CSc1ncc2c(n1)-c1c(csc1SC)CC2,> 200
